# Experimental data: patent publication US20220009906A1, “ISOINDOLIN-1-ONE DERIVATIVES USEFUL AS GRK2 INHIBITORS” (priority 2020, published 2022)
# Amino acid sequences for entries named in this document (tags omitted).
# UniProt P25098, whole entry: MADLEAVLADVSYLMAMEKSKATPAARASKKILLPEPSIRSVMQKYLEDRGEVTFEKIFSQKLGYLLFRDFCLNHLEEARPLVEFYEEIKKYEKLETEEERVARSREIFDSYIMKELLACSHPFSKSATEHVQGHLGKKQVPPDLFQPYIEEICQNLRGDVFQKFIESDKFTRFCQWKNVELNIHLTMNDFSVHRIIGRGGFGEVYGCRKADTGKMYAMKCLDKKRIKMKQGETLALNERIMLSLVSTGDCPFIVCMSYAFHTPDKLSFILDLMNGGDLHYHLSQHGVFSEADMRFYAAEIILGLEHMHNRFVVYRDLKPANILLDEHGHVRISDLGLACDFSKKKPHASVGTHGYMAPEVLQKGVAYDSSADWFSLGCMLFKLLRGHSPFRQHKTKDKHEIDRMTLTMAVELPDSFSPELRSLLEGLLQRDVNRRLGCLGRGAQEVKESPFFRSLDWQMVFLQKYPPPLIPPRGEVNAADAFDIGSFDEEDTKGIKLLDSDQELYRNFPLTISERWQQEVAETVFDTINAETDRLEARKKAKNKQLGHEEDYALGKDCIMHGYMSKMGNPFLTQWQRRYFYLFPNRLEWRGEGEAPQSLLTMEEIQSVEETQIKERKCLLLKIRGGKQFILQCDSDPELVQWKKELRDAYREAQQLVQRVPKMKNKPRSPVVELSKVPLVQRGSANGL
# Target: GRK2 (Homo sapiens, UniProt P25098)
# Experiment: hGRK2 LANCE Ultra In Vitro Assay
# Type: biochemical
# Conditions: read-out: Biological Example 1 GRK2 Lancer IC50; 10 nM GRK2; 30 or 600 μM ATP (not stated which); multiple measurements listed individually
row,SMILES,IC50
1,C#CCOc1cccc(CN2Cc3ccc(-c4cn[nH]c4)cc3C2=O)c1,< 5 nM
2,C[C@H](c1cccc(C(=O)O)c1)N1Cc2ccc(-c3cn[nH]c3)cc2C1=O,> 20000 nM
3,Cc1cccc(C)c1CNC(=O)c1cccc(CN2C(=O)c3cc(-c4cn[nH]c4)ccc3C23CCCC3)c1,< 5 nM
